# Results taken from patent US7629376B2, “3-substituted-5- and 6-aminoalkyl indole-2-carboxylic acid amides and related analogs as inhibitors of casein kinase I” (Aventis Pharmaceuticals Inc., priority 2004, dated 2009).
# Amino acid sequences for entries named in this document (tags omitted). A change or cut given only in a name is not applied to a line headed by its entry.
# UniProt P49674: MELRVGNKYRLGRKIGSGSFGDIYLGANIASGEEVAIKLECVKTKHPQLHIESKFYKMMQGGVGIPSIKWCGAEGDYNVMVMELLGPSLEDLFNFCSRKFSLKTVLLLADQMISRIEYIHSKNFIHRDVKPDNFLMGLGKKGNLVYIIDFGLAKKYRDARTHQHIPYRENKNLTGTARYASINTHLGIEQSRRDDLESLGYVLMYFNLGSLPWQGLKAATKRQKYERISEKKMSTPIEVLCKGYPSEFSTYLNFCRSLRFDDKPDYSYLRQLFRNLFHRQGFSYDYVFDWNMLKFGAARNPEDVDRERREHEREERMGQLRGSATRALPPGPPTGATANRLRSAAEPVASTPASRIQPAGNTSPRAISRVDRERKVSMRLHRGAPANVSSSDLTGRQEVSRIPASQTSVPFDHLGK
# Read-outs that look alike come from different tables or passages of the source.
# Biological target: T1, casein kinase 1ε (Homo sapiens, UniProt P49674)
# T1 construct: made in house
# Experiment: Casein Kinase Epsilon 33P-ATP Filter Plate Assay for Screening CK1ε Inhibitors
# Format: biochemical
# [1] = phosphorylation of dephosphorylated casein, five concentrations in duplicate, 10 μM cold ATP, room temperature 2 hours, read-out: Casein Kinase Iε 33P-ATP Filter Plate Assay Ki (μM) (*denotes average of 2 or more determinations)
Compound,Ki,Ki [1]
"CNCc1ccc2[nH]c(C(N)=O)c(Sc3ccccc3)c2c1 [Ic, 5-Methylaminomethyl-3-phenylsulfanyl-1H-indole-2-carboxylic acid amide]",0.14 µM,–
3-(3-Fluorophenylsulfanyl)-5-methylaminomethyl-1H-indole-2-carboxylic acid amide [Ie],–,0.34 µM
"COc1cc(C=CCNCc2ccc3c(Sc4ccccc4)c(C(N)=O)[nH]c3c2)ccc1O [IIaq, 6-{[3-(4-Hydroxy-3-methoxyphenyl)allylamino]methyl}-3-phenylsulfanyl-1H-indole-2-carboxylic acid amide]",0.14 µM,–
"NC(=O)c1[nH]c2ccc(CNCC(O)CO)cc2c1Sc1ccccc1 (centres unmarked) [Iy, 5-[(2,3-Dihydroxypropylamino)methyl]-3-phenylsulfanyl-1H-indole-2-carboxylic acid amide]",0.34 µM,–
3-(3-Chlorophenylsulfanyl)-5-methylaminomethyl-1H-indole-2-carboxylic acid amide,–,0.14 µM
